Experimental findings from article PMC5668434, “Modulation of telomere protection by the PI3K/AKT pathway” (Nature Communications, 2017) are described below.

Amino acid sequences for entries named in this document (tags omitted).
UniProt P42336, whole entry: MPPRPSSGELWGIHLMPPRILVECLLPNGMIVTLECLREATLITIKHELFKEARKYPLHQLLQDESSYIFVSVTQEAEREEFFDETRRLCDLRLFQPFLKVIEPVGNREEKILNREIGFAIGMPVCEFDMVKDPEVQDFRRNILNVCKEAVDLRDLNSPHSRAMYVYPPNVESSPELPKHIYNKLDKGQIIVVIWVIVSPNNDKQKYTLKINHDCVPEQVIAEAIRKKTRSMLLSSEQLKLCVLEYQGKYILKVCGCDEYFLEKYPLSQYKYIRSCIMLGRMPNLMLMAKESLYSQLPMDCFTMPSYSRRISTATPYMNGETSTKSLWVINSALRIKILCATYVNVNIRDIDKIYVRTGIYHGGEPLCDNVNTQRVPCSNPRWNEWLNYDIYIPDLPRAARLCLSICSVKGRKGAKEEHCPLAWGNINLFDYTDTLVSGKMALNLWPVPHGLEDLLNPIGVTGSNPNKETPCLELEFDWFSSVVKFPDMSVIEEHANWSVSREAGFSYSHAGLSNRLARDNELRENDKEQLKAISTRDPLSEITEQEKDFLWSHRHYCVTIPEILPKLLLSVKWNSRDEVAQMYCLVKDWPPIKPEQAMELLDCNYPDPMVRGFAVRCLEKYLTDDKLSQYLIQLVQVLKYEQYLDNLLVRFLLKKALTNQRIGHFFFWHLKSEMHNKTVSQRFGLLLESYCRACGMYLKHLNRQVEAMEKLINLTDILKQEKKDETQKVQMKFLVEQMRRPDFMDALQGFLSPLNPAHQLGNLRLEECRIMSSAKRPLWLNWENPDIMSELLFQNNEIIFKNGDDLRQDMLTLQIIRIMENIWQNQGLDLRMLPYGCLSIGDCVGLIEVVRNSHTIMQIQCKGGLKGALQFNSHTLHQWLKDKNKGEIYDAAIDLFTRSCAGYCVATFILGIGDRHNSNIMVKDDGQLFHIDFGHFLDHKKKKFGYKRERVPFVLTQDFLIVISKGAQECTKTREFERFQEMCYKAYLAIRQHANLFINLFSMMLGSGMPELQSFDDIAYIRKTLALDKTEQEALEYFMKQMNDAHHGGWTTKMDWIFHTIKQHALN

One assay deals with T1, PI3K (p110α) (Homo sapiens, UniProt P42336).
T1 construct: purchased Cama Biosciences (sic; Carna Biosciences) #07CBS-0402A
Briefly: PI3K alpha biochemical assay (ADP Hunter Plus). As to conditions: internal data; read-out: PI3Kα IC50.

For another assay, the target named is T2, mTOR (FRAP1) (Homo sapiens, UniProt P42345).
T2 construct: purchased ThermoFisher PV4753
Kind of assay: mTOR biochemical assay (LanthaScreen). A general note: Time-resolved FRET reads energy transfer from a long-lived donor to a nearby acceptor.

Regarding `COCCNC(=O)c1nc2c(N3CCOCC3)nc(-c3cnc(N)nc3)cn2c1C` [ETP-46992], the IC50 – broadly, the point on the concentration scale where inhibition reaches its midpoint – at PI3K (p110α) was found to be 0.9 nM. As to `COc1ncc(-c2ccc3nccc(-c4ccnnc4)c3c2)cc1NS(=O)(=O)c1ccc(F)cc1F` [GSK-2126458], the “mTOR inhibition (in words)” value on mTOR (FRAP1) is listed as “potent nanomolar mTOR inhibition”.
